The text below walks through data of paper PMC6225166, “Polyphenols from Acorn Leaves (Quercus liaotungensis) Protect Pancreatic Beta Cells and Their Inhibitory Activity against α-Glucosidase and Protein Tyrosine Phosphatase 1B” (Molecules : A Journal of Synthetic Chemistry and Natural …, 2018).

As a reminder, the IC50 is the concentration that inhibits the measured activity by half.

The target of this test is T1, PTP1B (human, recombinant) (Homo sapiens, UniProt P18031).
T1 construct: purchased Sigma-Aldrich (St. Louis, MO, USA)
T1 sequence (P18031 1-435): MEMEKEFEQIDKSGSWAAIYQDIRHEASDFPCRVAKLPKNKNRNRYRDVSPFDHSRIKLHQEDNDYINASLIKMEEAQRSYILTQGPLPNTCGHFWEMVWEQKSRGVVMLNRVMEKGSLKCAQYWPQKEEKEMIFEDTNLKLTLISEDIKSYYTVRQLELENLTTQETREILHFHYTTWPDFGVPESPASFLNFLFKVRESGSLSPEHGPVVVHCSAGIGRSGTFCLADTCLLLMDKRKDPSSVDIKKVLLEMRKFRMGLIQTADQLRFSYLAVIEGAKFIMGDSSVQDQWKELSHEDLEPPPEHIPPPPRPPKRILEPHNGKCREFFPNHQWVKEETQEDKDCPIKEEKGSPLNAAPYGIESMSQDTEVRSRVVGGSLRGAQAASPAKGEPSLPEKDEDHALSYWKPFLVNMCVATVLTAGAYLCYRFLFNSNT
Put plainly: PTP1B inhibition assay (pNPP substrate). It counts as biochemical.

In the case of kaempferol-3-O-rutinoside [Compound 3], the concentration for half-maximal inhibition (IC50) was 24.9 ± 2.39 µM.
